From PubChem BioAssay (Tox21)
Values joined by “and” are separate entries in the source; they are usually repeats but may differ in a detail not shown here. Equal entries are not always repeated. The entries are a selection whose mix differs from that of the whole data set. Active and inactive are the calls of the source. Calls follow the shape of the dose curve; as a rule, active = well fitted curve in the direction sought with a large enough effect in the repeat runs; inconclusive = weak or mixed curves; inactive = flat fitted curve, though single readings scatter.

assay: qHTS assay to test for compound auto fluorescence at 590 nm (red) in HepG2 cells (AID 720674); settings: HepG2 autofluorescence, red 540/590 nm, 1 h; at 46 µM (top of the series)
Text: U.S. Tox21 Program National Center for Advancing Translational Sciences [NCATS] NIH Chemical Genomics Center [NCGC] U.S. Environmental Protection Agency [EPA] National Institutes of Environmental Health Sciences [NIEHS] National Toxicology Program [NTP] U.S. Food and Drug Administration [FDA] Tox21 Assay Overview: Compound auto fluorescence often interferes with screening of the compound library against various biological targets and signaling pathways. Some of these compounds may have fluorophoric properties. Such properties may interfere with the assay outputs resulting in false positives and/or negatives. To decrease such complications and ensure the compound activities are relevant in terms of biological response, the Tox21 10K compound library was screened for auto fluorescence. From the fluorophores used as reporter signals in our screening assays, the auto fluorescence equivalencies of compounds against three fluorophores have been evaluated: Triamterene, Fluorescein and Rose Bengal sodium for blue, green and red fluorescence, respectively. The fluorescence intensities were measured using Excitation/Emission wavelengths at 405/460nm, 485/535nm and 540/590nm for blue, green and red labels, respectively. This assay includes the red fluorescence data.
Tox21 Assay Protocol Summary: 2,000 HepG2 cells in 5 uL of culture medium (MEM containing 10% FBS) per well were dispensed into black wall/clear bottom 1536-well plates using a Multidrop Combi Dispenser (ThermoFisher Scientific, Waltham, MA). The assay plates were incubated overnight at 37 C to allow cell attachment to the well bottom, followed by the transfer of 23 nL compound or DMSO vehicle by a pintool work station (Kalypsys , San Diego, CA). After the assay plates were incubated for 1 hr at 37 C and 5% CO2, fluorescence intensities in the assay plates were measured by an Envision (PerkinElmer, Shelton, CT) plate reader using three labels for measuring blue, green and red fluorescence at […] 460, 535 and 590 nm respectively.
% is scaled to controls: 0 for no effect and ±100 for the full control effect.

Compound	fluorescence, relative to Rose Bengal
NC(=O)Nc1ccc([As](=O)(O)O)cc1	inactive: -0.007%

same assay, conditions: HepG2 autofluorescence, red 540/590 nm, 1 h; at 91.3 µM (top of the series)

Compound	fluorescence, relative to Rose Bengal
NC(=O)Nc1ccc([As](=O)(O)O)cc1	inactive: 0.0908%

same assay, conditions: HepG2 autofluorescence, red 540/590 nm, 1 h; at 91.3 µM (top of the series) unless noted

Compound	fluorescence, relative to Rose Bengal
O=P(Cl)(Oc1ccccc1)Oc1ccccc1	inactive: -0.316%
CC(C)CCCCCCCOP(OCCCCCCCC(C)C)Oc1ccccc1	inactive: -0.119%
O=[p+]1oc2ccccc2c2ccccc21 (stereo not drawn)	inactive: -0.4%
Cc1cc([N+](=O)[O-])c(O)c([N+](=O)[O-])c1	inactive: -0.247%
CCCCCCCCCCCCCC[P+](CCCCCC)(CCCCCC)CCCCCC	inactive: -0.249%
CC(C)OP(=S)(OC(C)C)SCCNS(=O)(=O)c1ccccc1	inactive: 0.047%
COP(=S)(Cl)OC	inactive: 0.0566%
CCOP(=S)(CC)Sc1ccccc1 (stereo not drawn)	inactive: -0.0577%
CN(N=O)C(=N)N[N+](=O)[O-]	inactive: -0.0991%
CCCCC(CC)CO[P+](=O)OCC(CC)CCCC (stereo not drawn)	inactive: 0.0002%
ClP(Cl)c1ccccc1	inactive: -0.134%
Cc1cc([N+](=O)[O-])cc([N+](=O)[O-])c1O	inactive: -0.0746% and inactive: -0.755%
CN(C(=O)Cc1ccc(Cl)c(Cl)c1)[C@H]1CC[C@@]2(CCCO2)C[C@@H]1N1CCCC1	inactive: 0.0887% [at 46 µM]
O=[N+]([O-])c1ccc(S(=O)(=O)O)c([N+](=O)[O-])c1	inactive: -0.0356%
O=[As]c1ccccc1 (stereo not drawn)	inactive: -0.217%
COC(=O)Cl	inactive: 0.194%
CCNC(C)Cc1ccc2c(c1)OCO2 (stereo not drawn)	inactive: 0.244% [at 95.7 µM]
O=C1C2CC=CCC2C(=O)N1SC(Cl)(Cl)C(Cl)Cl (stereo not drawn)	inactive: -0.475% and inactive: 0.319%
CN(C(=O)Cc1ccccc1)[C@H]1CC[C@@]2(CCCO2)C[C@@H]1N1CCCC1	inactive: -0.0163% [at 46 µM]
O=[P+](Oc1ccccc1)Oc1ccccc1	inactive: -0.175%
N#CSc1ccc([N+](=O)[O-])cc1[N+](=O)[O-]	inactive: 0.317%
CCOC(=O)Cl	inactive: 0.21%
O=C(OC1CN2CCC1CC2)c1ccccc1 (stereo not drawn)	inactive: -0.264% [at 46 µM]
CCCCO[P+](=O)OCCCC	inactive: -0.154% and inactive: -0.173%
O=P(Cl)(Cl)c1ccccc1	inactive: -0.13%
CN(C(=O)Cc1cccc2occc12)[C@H]1CC[C@@]2(CCCO2)C[C@@H]1N1CCCC1	inactive: 0.0461%
